Measurements from US5278150A, “2-hydrazoadenosines and their utility for the treatmeat of vascular conditions” (Whitby Research, Inc., priority 1992, dated 1994).

Amino acid sequences for entries named in this document (tags omitted).
UniProt P47745, whole entry: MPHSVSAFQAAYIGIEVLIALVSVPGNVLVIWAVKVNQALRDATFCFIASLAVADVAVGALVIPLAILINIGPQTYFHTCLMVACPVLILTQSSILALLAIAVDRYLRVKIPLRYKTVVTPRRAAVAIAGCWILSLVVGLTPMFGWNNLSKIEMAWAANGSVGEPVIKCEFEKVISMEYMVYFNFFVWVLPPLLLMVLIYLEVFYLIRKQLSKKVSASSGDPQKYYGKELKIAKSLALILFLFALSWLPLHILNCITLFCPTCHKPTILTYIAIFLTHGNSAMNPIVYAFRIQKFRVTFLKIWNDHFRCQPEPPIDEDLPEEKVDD

Tests used:
[1] = system: A2 adenosine receptor; settings: coronary arteries vs atrioventricular node; cited from earlier work
[2] = target: A1 adenosine receptor (Cavia porcellus, UniProt P47745); settings: -LOG EC50 A1, BIOASSAY RESULTS table

| EC50 [2] [µM] | Structure (SMILES) | selectivity for the A2 receptor [1] [fold] |
| --- | --- | --- |
|  | Nc1nc(OCCC2CCCCC2)nc2c1ncn2[C@@H]1O[C@H](CO)[C@@H](O)[C@H]1O [2-(2-cyclohexylethoxy)adenosine] | 8700 |
| 22.9 | COc1ccc(C=NNc2nc(N)c3ncn([C@@H]4O[C@H](CO)[C@@H](O)[C@H]4O)c3n2)cc1 [Example 11, 6-amino-2-{2-[(4-methoxyphenyl)methylene]diazanyl}-9-(β-D-ribofuranosyl)-9H-purine] |  |
